## Antibody variant affinities, Ab-14 light chain, assay B

Data: MIT Lincoln Laboratory AlphaSeq set, Li et al. 2023, doi:10.1038/s41467-023-39022-2, as distributed in FLAb.

Target peptide (SARS-CoV-2 spike, HR2 region): PDVDLGDISGINAS

Ab-14 is the parent antibody, in scFv form: VH, then three GGGGS repeats, then VL. The heavy chain is unchanged in all variants.
VH: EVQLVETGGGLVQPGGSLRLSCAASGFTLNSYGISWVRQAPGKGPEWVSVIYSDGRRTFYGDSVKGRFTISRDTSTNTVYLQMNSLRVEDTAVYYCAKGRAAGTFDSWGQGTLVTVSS
VL: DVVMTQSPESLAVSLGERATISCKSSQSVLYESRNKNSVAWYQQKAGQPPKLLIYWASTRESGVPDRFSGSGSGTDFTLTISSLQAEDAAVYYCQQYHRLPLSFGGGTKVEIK

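The starting antibody came from a phage panning campaign against this peptide. The variants were designed computationally from a first round of random CDR variants and then made and measured. Group labels follow the data file (Ctrl: baseline library sampled from a position-specific scoring matrix, with some repeated check sequences; En: ensemble of fine-tuned language models; GP: Gaussian process model; HC: hill climbing; Gen: genetic algorithm; Gibbs: Gibbs sampling; a sequence that several methods proposed may carry one label only). AlphaSeq pools MATa yeast showing the antibodies with MATalpha yeast showing the peptide. The frequency of each diploid, read from paired DNA barcodes, reflects how well the two displayed proteins bind. The ratio of observed to expected reads was calibrated, replicate by replicate, on BCL2-family standards whose Kd was known from biolayer interferometry. The assay was run in six technical replicates.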

The parent's light chain CDRs are KSSQSVLYESRNKNSVA, WASTRES, QQYHRLPLS; each variant's own CDRs replace them letter for letter. Affinities are written as log10 Kd with Kd in nM; a lower number is a better binder. Averages over replicates are reported, and they cover detected replicates only. "nd" means that the variant was in the library but no mating with the target was seen in that replicate; the authors take this as a sign of poor binding, and no number exists. The list is sorted by this average, lowest first, undetected variants last. The parent sequence was in this pool as ten entries: three were never detected, three once, and four in most replicates, with averages from 0.34 to 2.37.

With KISQSVLYESRNKNSVA | EASTREQ | QQYHRLPLS [GP_Gen] the result was -0.23, -0.48, -0.49, -0.57, -0.54, -0.26 (mean -0.43; controls 1 of 18).
With YLQQSVLYESRNKNSVA | NASTRES | QQYHRLPLS [GP_Gen] the result was -0.26, -0.31, -0.37, -0.48, -0.47, -0.34 (mean -0.37; controls 1 of 18).
With KISQSVLYESRNQNAVA | EASTRCD | QQYHRLPLS [GP_Gibbs] the result was -0.21, -0.20, -0.43, -0.51, -0.40, -0.31 (mean -0.35; controls 3 of 18).
With KLSFSVGGESRNKNSVA | DAGTRES | QQYHRLPLS [GP_Gibbs] the result was -0.26, -0.37, -0.23, -0.24, -0.31, -0.22 (mean -0.27; controls 1 of 18).
With KLEQLQLYESRNKNSVA | NASTRES | QQYHRLPLS [GP_Gen] the result was 0.15, -0.43, -0.52, -0.56, 0.07, -0.23 (mean -0.25; controls 0 of 18).
With KLQQSEQYESRNKNSVA | SASTRES | QQYHRLPLS [GP_Gen] the result was -0.12, -0.24, -0.34, -0.36, -0.26, -0.16 (mean -0.25; controls 1 of 18).
With KLEQSHNYESRNKNSVA | NASTRES | QQYHRLPLS [GP_HC] the result was -0.13, -0.11, -0.12, -0.17, -0.33, -0.28 (mean -0.19; controls 0 of 18).
With KLDFSALEESRNPNSVA | SASTRES | QDYHRLPLS [GP_Gibbs] the result was 0.08, -0.04, -0.24, -0.19, -0.25, 0.14 (mean -0.08; controls 1 of 18).
With KLSNSDLYQSRNKNSVA | NASTRYS | QQYHRLPLS [GP_Gibbs] the result was 0.30, -0.31, 0.58, -0.45, -0.40, -0.07 (mean -0.06; controls 0 of 18).
With KSSQSHLYESNNKNSVA | WASTRES | QQYHRLLIS [Ctrl] the result was nd, nd, nd, nd, nd, -0.03 (controls 0 of 18).
With KSSISMLGEKRNKNSVA | EASTRES | QQYHRLPLS [GP_HC] the result was 0.21, 0.12, 0.03, -0.09, -0.09, 0.11 (mean 0.05; controls 1 of 18).
With KLLQSVLYESRDKNNVA | HASTRED | QQYHRLPLS [GP_HC] the result was 0.14, 0.08, 0.27, 0.01, -0.11, 0.07 (mean 0.08; controls 1 of 18).
With KLPQEVWYQSRMKNSVA | DASQRES | QQYHRLPLS [GP_Gibbs] the result was -0.04, 0.14, 0.04, 0.12, 0.13, 0.32 (mean 0.12; controls 0 of 18).
With KSSASQEYEDRNKNSVA | HASTRLQ | QQYHRLPLS [GP_Gibbs] the result was 0.31, 0.28, 0.16, -0.08, 0.18, 0.11 (mean 0.16; controls 0 of 18).
With KSSWSVLQESRNKNSVA | DASTRES | QQYHRLPLS [GP_HC] the result was 0.16, 0.10, 0.57, -0.25, 0.18, 0.45 (mean 0.20; controls 0 of 18).
With KLQQSVLYESRNKNSVA | NASYRLS | QQYHRLPLS [GP_Gen] the result was 0.14, 0.14, 0.13, 0.05, 0.22, 0.54 (mean 0.20; controls 1 of 18).
With KISQSMLYEPRNWNSVA | NASTRLS | QQYHRLPLS [GP_Gibbs] the result was 0.28, 0.23, 0.59, -0.09, 0.04, 0.19 (mean 0.21; controls 0 of 18).
With KQDFSCPGEQRNKNSVA | SASTRMS | QQYHRLPLS [GP_Gibbs] the result was 0.27, 0.02, 0.10, 0.05, 0.05, 0.76 (mean 0.21; controls 0 of 18).
With KSSSSVLYESGNKNSVA | HASTRED | QQYHRLPLS [GP_HC] the result was 0.05, 0.40, 0.11, 0.35, 0.17, 0.41 (mean 0.25; controls 2 of 18).
With KLVNFMNRGTHHTSNIA | DAQNRDD | QQYARLPLA [En_Gen] the result was 0.43, 0.39, 0.36, 0.10, -0.18, 0.40 (mean 0.25; controls 0 of 18).
With MLGDTVMQGMYSRNSVA | QESTRAD | QQYHHLPLS [En_HC] the result was 0.33, 0.32, 0.26, 0.12, 0.31, 0.45 (mean 0.30; controls 2 of 18).
With KSVMSVLYESRNKNSVA | KASTRES | QQYHRLPLS [Ctrl] the result was nd, 0.24, 0.02, nd, nd, 0.72 (mean 0.33; controls 0 of 18).
With KFSPSFLYWSRNSNAVA | EASTRES | QDYHRLPLS [GP_Gibbs] the result was 0.48, 0.50, 0.19, 0.24, 0.23, 0.44 (mean 0.35; controls 1 of 18).
With KLSQSWEYESRNKNSVA | NASQRLS | QQYHRLPLS [GP_Gen] the result was 0.38, 0.49, 0.29, 0.29, 0.33, 0.56 (mean 0.39; controls 2 of 18).
With MMSQVTGMESRQRNNVA | QTSTREP | QQYDRLPLI [En_Gen] the result was 0.52, 0.93, 0.72, 0.14, 0.13, 0.64 (mean 0.51; controls 2 of 18).
With TLGGAMLTQMHNKNSVA | DLTTRGN | QQYHRLPLS [En_Gen] the result was 0.65, 0.59, 0.31, 0.54, 0.46, 0.63 (mean 0.53; controls 0 of 18).
With NIVGRVEDKQTTTANIA | DAELRAG | QQYSRLPLS [En_Gibbs] the result was 0.68, 0.77, 0.39, 0.49, 0.34, 0.82 (mean 0.58; controls 0 of 18).
With KLQQVTGYEMYVRNSVA | QMSTRAE | QDYNRLPLS [En_HC] the result was 0.67, 0.64, 0.42, 0.51, 0.72, 0.61 (mean 0.59; controls 1 of 18).
With MISQTFLIGMKAKNSVA | QTSTRES | QQYDRLPLS [En_HC] the result was 0.75, 0.24, 0.54, 1.08, 0.57, 1.32 (mean 0.75; controls 0 of 18).
With KLMQQTLYETRNKNSVA | WASTREE | QQYHRLPLS [GP_HC] the result was 0.97, 0.47, 0.70, 0.65, 1.06, 0.92 (mean 0.79; controls 0 of 18).
With KLAMSVMLESRWCNSVA | SASTREE | QQYHRLPLS [GP_Gibbs] the result was 1.20, 1.36, 0.82, 0.68, 0.86, 0.95 (mean 0.98; controls 0 of 18).
With KVSVSQLYESRNKNSVA | WASTRES | QQYHRLPLS [Ctrl] the result was 1.00, 1.39, 0.68, 1.05, 1.39, 0.72 (mean 1.04; controls 0 of 18).
With KSSQSVLAESNNKNSIA | SASTRES | QGYHRLPLS [Ctrl] the result was 1.15, 1.00, 0.97, 1.24, 1.10, 1.55 (mean 1.17; controls 1 of 18).
With KLSQVTHMEHRNKNSIA | EMVTREK | QQYDRLPLS [En_HC] the result was 0.42, 1.01, 1.53, 2.76, 0.74, 0.81 (mean 1.21; controls 0 of 18).
With KLSQLFYKESKNKNNVA | EMTTRGS | QQYDRLPLS [En_HC] the result was 1.68, 1.36, 1.40, 2.03, 1.54, 1.71 (mean 1.62; controls 2 of 18).
With TISQSAYWESRNKNSVA | QTSTREE | QDYDRLPLS [En_HC] the result was 1.49, 1.60, 1.39, 1.88, 1.99, 1.81 (mean 1.69; controls 1 of 18).
With KSSQSVPNESRNKNSVA | WASTRES | QQYHRLPLS [Ctrl] the result was nd, nd, 1.08, 1.46, 1.90, 2.37 (mean 1.70; controls 0 of 18).
With KMSQKVLNESRNQNSVA | WASTRES | QQYHRLPLS [Ctrl] the result was 2.14, 1.81, 1.52, 1.51, 1.96, 1.54 (mean 1.75; controls 3 of 18).
With NFSEQYKTDREQQYSIA | GMDIREK | QQYGRLPLT [En_Gibbs] the result was 2.47, 2.66, 1.45, nd, 1.36, 1.69 (mean 1.93; controls 0 of 18).
With MISDMGLHDSRIQNSVA | NNSTREA | QQYERLPLS [En_HC] the result was 1.73, 1.53, 1.85, 1.53, 2.33, 2.63 (mean 1.93; controls 1 of 18).
With KLLQTVMNGRRNRNNVA | HMTTRED | QQYFRLPLS [En_HC] the result was nd, nd, nd, 2.15, nd, nd (controls 0 of 18).
With KSSQSVTQESRNKGSVA | WASTRES | QQYHRLPLS [Ctrl] the result was 1.61, 2.27, 2.24, nd, 2.35, 2.61 (mean 2.22; controls 1 of 18).
With MISQLWNMGTFAINSVA | QASIRNS | QQYDRLPLV [En_Gen] the result was nd, nd, nd, 2.30, nd, nd (controls 0 of 18).
With HVSESVLLQSKMKNSVA | ENSTRES | QQYDRLPLS [En_HC] the result was 1.62, 2.51, nd, 3.26, 2.24, 2.64 (mean 2.45; controls 1 of 18).
With HISQSVGMTSFNKNSVA | ENSTRES | QQYDRLPLS [En_HC] the result was nd, 1.84, 2.05, 2.54, 2.86, 3.11 (mean 2.48; controls 0 of 18).
With KIYNMTGFQSRNADSIA | DNSTRGR | QQYHRLPLS [En_HC] the result was nd, 2.99, 1.96, 2.60, 2.87, nd (mean 2.60; controls 0 of 18).
With KSSQSVLYEERNKNSVA | WASTREQ | QQYHELPVS [Ctrl] the result was nd, nd, nd, nd, nd, nd (controls 0 of 18).
With KSSQSVLYESRNKNSVA | WASTRES | QQTHKLPLS [Ctrl] the result was nd, nd, nd, nd, nd, nd (controls 0 of 18).
With KSSQSVLEMSLNDNSVA | WAMTRES | QQYHRLPLS [Ctrl] the result was nd, nd, nd, nd, nd, nd (controls 0 of 18).
With KLDMSLNYESVALDSIA | EEVMHTA | QQYDRLPLF [En_Gibbs] the result was nd, nd, nd, nd, nd, nd (controls 0 of 18).
With MLSEVLHMLGVAKNSIA | DLVLRAN | QQYMRLPLM [En_Gen] the result was nd, nd, nd, nd, nd, nd (controls 0 of 18).
With FMEMDFDGNSVNHNSIA | SSEVVTR | QHYARLPLS [En_Gibbs] the result was nd, nd, nd, nd, nd, nd (controls 0 of 18).

The 8 strongest on average among those seen in every replicate, once more:

KISQSVLYESRNKNSVA | EASTREQ | QQYHRLPLS [GP_Gen]: -0.23, -0.48, -0.49, -0.57, -0.54, -0.26 (mean -0.43; controls 1 of 18).
YLQQSVLYESRNKNSVA | NASTRES | QQYHRLPLS [GP_Gen]: -0.26, -0.31, -0.37, -0.48, -0.47, -0.34 (mean -0.37; controls 1 of 18).
KISQSVLYESRNQNAVA | EASTRCD | QQYHRLPLS [GP_Gibbs]: -0.21, -0.20, -0.43, -0.51, -0.40, -0.31 (mean -0.35; controls 3 of 18).
KLSFSVGGESRNKNSVA | DAGTRES | QQYHRLPLS [GP_Gibbs]: -0.26, -0.37, -0.23, -0.24, -0.31, -0.22 (mean -0.27; controls 1 of 18).
KLEQLQLYESRNKNSVA | NASTRES | QQYHRLPLS [GP_Gen]: 0.15, -0.43, -0.52, -0.56, 0.07, -0.23 (mean -0.25; controls 0 of 18).
KLQQSEQYESRNKNSVA | SASTRES | QQYHRLPLS [GP_Gen]: -0.12, -0.24, -0.34, -0.36, -0.26, -0.16 (mean -0.25; controls 1 of 18).
KLEQSHNYESRNKNSVA | NASTRES | QQYHRLPLS [GP_HC]: -0.13, -0.11, -0.12, -0.17, -0.33, -0.28 (mean -0.19; controls 0 of 18).
KLDFSALEESRNPNSVA | SASTRES | QDYHRLPLS [GP_Gibbs]: 0.08, -0.04, -0.24, -0.19, -0.25, 0.14 (mean -0.08; controls 1 of 18).

Three control strains display no target. For all light chain designs, 4% of the pairings with them gave a signal, with a median of 2.64 and one signal in twenty below 1.59, so weak values seen in few replicates may be background. The control count says in how many pairings with the empty strains this scFv gave a signal. The authors averaged sequences with at least three values out of six and counted those with two or fewer as poor binders. The range of this assay differs from that of the first round, and the authors advise against merging the two.